PMC11507932, “Comparative Analysis on Polyphenolic Composition of Different Olive Mill Wastewater and Related Extra Virgin Olive Oil Extracts and Evaluation of Nutraceutical Properties by Cell-Based Studies” (Foods, 2024)

Tested on: co-culture of Caco-2 and HT29-MTX cell lines
Test: Intestinal permeability assay, Caco-2/HT29-MTX co-culture, LC-MS quantification
Assay type: in vitro ADME, human

## Pinoresinol
OMWW B1 sample, 30 min, mean ± SD (n = 3)
  calculated concentration, basolateral side: 3,83 ± 0,06 ng/mL
OMWW B1 sample, 60 min, mean ± SD (n = 3)
  calculated concentration, basolateral side: 4,74 ± 0,21 ng/mL
OMWW B1 sample, 120 min, mean ± SD (n = 3)
  calculated concentration, basolateral side: 6,33 ± 0,18 ng/mL
OMWW B1 sample, 180 min, mean ± SD (n = 3)
  calculated concentration, basolateral side: 6,44 ± 2,76 ng/mL
OMWW B1 sample, 240 min, mean ± SD (n = 3)
  calculated concentration, basolateral side: 8,57 ± 0,06 ng/mL
OMWW B1 sample, apical (100% reference), mean ± SD (n = 3)
  calculated concentration, apical side: 20,00 ± 5,37 ng/mL
Polyphenol within OMWW B1 sample (500 µg/mL), apical to basolateral, 240 min
  Mean Permeation Rate (±SD) at 240 min: 44% and 44 ± 12%

Where “and” joins values, the source holds several entries; their conditions need not be identical. Equal values may be shown once.
